Experiments:
[1] = target: FAP-expressing human WI-38 fibroblasts (Homo sapiens (Human), UniProt Q12884); assay: FACS binding assay (competitive, Cy5-labeled 3BP-2935); conditions: FAP-expressing WI-38 fibroblasts
Human recombinant FAP = Human recombinant FAP (Homo sapiens (Human), UniProt Q12884); assay: FAP protease activity assay (human), FRET-based; format: biochemical
recombinant human PREP = recombinant human PREP (Homo sapiens (Human), UniProt P48147); assay: PREP protease activity assay; format: biochemical
Recombinant human DPP4 = Recombinant human DPP4 (Homo sapiens (Human), UniProt P27487); assay: DPP4 protease activity assay; format: biochemical

The chains behind the UniProt entries cited, without tags or fusion partners. Residues count along the entry.
UniProt Q12884, whole entry: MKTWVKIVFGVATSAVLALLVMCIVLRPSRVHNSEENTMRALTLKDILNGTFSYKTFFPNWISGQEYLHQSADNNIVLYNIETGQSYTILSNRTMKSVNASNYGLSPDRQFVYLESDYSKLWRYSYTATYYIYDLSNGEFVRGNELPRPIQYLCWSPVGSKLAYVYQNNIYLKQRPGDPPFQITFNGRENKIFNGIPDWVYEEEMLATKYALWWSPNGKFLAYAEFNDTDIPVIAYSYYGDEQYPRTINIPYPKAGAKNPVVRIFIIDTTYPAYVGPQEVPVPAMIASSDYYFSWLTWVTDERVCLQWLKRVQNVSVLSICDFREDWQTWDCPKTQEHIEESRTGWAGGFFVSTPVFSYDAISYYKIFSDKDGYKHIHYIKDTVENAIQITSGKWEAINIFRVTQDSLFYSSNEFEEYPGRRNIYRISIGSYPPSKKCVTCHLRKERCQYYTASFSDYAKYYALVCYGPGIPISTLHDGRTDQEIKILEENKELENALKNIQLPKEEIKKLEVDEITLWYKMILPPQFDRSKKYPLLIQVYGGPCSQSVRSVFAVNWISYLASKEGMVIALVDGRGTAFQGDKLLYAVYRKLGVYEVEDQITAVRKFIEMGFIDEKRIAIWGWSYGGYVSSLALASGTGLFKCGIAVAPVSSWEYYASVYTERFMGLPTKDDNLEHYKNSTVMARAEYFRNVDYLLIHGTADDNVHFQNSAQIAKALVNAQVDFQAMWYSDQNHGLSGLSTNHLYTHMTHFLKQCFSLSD
UniProt Q12884, 26-760 limits assumed: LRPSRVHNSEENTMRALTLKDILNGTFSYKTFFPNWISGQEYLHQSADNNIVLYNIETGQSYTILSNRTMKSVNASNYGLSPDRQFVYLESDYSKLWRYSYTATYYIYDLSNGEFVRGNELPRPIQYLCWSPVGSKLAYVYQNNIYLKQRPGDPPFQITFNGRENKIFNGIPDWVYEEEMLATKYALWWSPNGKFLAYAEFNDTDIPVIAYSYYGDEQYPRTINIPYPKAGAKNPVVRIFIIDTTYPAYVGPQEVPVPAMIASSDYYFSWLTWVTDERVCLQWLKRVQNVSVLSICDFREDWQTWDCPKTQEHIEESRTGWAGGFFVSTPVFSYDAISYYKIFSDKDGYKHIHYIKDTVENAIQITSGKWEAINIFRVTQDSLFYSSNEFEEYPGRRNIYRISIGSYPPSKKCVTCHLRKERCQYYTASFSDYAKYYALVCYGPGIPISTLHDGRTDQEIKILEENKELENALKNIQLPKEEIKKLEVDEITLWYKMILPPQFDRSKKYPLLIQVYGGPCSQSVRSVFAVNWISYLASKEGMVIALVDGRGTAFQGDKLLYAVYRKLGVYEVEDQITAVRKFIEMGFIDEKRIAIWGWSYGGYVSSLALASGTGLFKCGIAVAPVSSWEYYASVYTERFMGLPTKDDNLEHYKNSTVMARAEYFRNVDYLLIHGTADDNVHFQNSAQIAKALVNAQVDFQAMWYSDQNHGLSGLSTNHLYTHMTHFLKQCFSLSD
UniProt P48147, whole entry: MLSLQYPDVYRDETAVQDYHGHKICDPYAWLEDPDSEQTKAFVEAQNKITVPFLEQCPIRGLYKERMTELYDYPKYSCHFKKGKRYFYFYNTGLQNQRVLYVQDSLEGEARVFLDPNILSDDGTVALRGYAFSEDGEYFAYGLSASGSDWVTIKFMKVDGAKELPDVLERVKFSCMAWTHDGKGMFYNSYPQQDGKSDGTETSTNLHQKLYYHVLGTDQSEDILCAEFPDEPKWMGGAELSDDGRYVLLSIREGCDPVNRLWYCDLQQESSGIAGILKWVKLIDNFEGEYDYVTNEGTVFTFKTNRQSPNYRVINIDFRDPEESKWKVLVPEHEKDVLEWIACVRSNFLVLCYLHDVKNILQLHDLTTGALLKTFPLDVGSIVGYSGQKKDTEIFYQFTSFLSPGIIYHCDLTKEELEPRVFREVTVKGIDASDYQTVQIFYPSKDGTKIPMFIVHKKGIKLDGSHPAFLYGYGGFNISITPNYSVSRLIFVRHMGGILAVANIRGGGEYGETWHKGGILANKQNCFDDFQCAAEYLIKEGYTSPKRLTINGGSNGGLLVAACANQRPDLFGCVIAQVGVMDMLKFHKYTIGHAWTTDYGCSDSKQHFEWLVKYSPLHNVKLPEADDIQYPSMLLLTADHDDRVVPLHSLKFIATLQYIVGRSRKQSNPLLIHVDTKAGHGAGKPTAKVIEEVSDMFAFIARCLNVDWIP
UniProt P27487, whole entry: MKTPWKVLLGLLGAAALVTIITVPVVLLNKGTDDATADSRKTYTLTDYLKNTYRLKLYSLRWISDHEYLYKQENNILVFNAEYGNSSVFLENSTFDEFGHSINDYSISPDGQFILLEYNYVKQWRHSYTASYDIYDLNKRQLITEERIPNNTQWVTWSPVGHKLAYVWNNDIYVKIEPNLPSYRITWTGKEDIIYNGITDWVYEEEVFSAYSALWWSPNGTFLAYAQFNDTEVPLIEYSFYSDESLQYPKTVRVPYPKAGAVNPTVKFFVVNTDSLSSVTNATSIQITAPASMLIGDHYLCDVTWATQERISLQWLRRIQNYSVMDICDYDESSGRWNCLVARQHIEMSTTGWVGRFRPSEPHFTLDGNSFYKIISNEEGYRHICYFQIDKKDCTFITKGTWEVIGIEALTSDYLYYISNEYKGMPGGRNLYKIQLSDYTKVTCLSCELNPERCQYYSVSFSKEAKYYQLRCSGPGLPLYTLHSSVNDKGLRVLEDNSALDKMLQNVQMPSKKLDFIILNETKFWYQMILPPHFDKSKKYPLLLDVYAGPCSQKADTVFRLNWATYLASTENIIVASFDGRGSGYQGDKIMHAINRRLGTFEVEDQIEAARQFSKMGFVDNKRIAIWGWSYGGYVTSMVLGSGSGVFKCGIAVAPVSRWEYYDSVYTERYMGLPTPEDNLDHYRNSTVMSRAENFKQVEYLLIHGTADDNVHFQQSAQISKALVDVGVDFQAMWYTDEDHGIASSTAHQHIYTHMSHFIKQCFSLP

pIC50 (FACS) [1]: 8.4 | pIC50 (Activity) (Human recombinant FAP): 8.7 | pIC50 (PREP) (recombinant human PREP): <6 | pIC50 (DPP4) (Recombinant human DPP4): <6
Structure (SMILES): N#C[C@@H]1CCCN1C(=O)CNC(=O)c1ccnc2cc(-c3ccc(C(=O)O)cc3)ccc12

Source: US20240335569A1, “FIBROBLAST ACTIVATION PROTEIN INHIBITORS AND USE THEREOF” (3 B PHARMACEUTICALS GMBH, priority 2021, published 2024)
